{"source": "patent US9060994B2", "about": "“Combination therapy with interferon and andrographolides for Multiple Sclerosis” (Inno Biosciences, S.p.A., priority 2011, dated 2015)", "key": {"[1]": {"tested_on": "MOG-immunized C57BL/6J mice", "test": "MOG-induced EAE mice, clinical score", "format": "in vivo", "details": "chronic EAE mice immunized with MOG, administered during active phase (day 16-31), compared with saline injected controls", "description": "EAE was induced by immunization with myelin oligodendrocyte glycoprotein (MOG)35-55 peptide ([…]) or proteolipid protein (PLP)139-151 ([…]; CPC Scientific, Sunnyvale, Calif., USA) emulsified at 1.5 mg/ml in PBS with an equal amount of incomplete Freund's adjuvant (IFA; DIFCO, MI, USA) supplemented with 2.5 mg/ml Mycobacterium tuberculosis, strain H37Ra (Difco, Detroit, Mich.). Mice were immunized subcutaneously with 200 ml emulsion. Pertussis toxin (LIST […], CA, USA), 200 ng in 200 μl PBS, was injected intraperitoneally at day 0 and 2 after initial immunization.\nAnimals were scored for clinical symptoms as follows: 0=no signs of disease; 1=lost of tail tone; 2=flaccid tail; 3=partial hind limb paralysis; 4=complete hind limb paralysis; 5=moribund required to sacrifice the animal; 6=death.\nFor IFN-β assays, C57BL/6, were administered intraperitoneally with 1 μg of IFN-β (IFN-β Rebif 88 μ/ml MERCK SORONO) in 200 μL PBS. Control mice were injected with 200 μL PBS.\nIFN-β was administrated from day 15 to 30 post-immunization, daily.\nFor combined therapy (CT) assays, C57BL/6, were administered intraperitoneally with 4 mg/kg of andrographolide and IFN-β 1 ug in 200 μL PBS. Control mice were injected with 200 μL PBS.\nCombined therapy (CT) was administrated from day 15 to 30 post-immunization, either daily or every second day. At day 36 all animals were sacrificed. […]"}, "[2]": {"details": "interferon beta monotherapy, 12 months"}}}
{"substance": "IFN-β: Interferon beta; Rebif in mice; Avonex, Rebif or Betaferon/Betaseron in patients", "values": [{"measurement": "total number and size of demyelinating lesions in the brain", "setting": "MS patients; MRI", "value": "No change"}, {"measurement": "inflammatory activity of demyelinating lesions", "setting": "MS patients; MRI Gadolinium contrast medium uptake, versus time 0", "value": "Some degree of reduction of inflammatory activity"}, {"measurement": "appearance of flu-like symptoms (aches and pains, fever, chills, sweating or headache)", "setting": "MS patients; human, in vivo", "value": "6 of 8"}, {"measurement": "depression", "setting": "MS patients; human, in vivo", "value": "Two patients reported mild depression"}, {"measurement": "antigravity displacement", "setting": "MS patients; [2]", "value": "No effect"}, {"measurement": "clinical signs of subjective wellness", "setting": "MS patients; [2]", "value": "No patients showed clinical signs of subjective wellness"}, {"measurement": "speech impairment, vision, deglutition and fine motricity", "setting": "MS patients; [2]", "value": "No improvement"}, {"measurement": "symptomatic control of fatigue and improvement of mood", "setting": "MS patients; [2]", "value": "no degree of symptomatic control"}, {"measurement": "mean clinical scores", "setting": "[1]", "value": "mild decrease in mean clinical scores"}]}
